These results are taken from patent publication EP0553673A1 (priority 1992, dated 1993).

The test concerns Krebszellen der Zellinie BIR-M1Rk. As to conditions: BIR-M1Rk cells.

Regarding `COC(C)(CCOP(N)(=O)N(CCCl)CCCl)OC` (racemic), the “um den Faktor verringerte Überlebensrate der Krebszellen” value (pH 6,2 of the medium, model for a cancer cell population under hyperglycaemia, dose 10 µg/ml) is 10 000. Moreover, the Toxizität result (pH 7,4 of the medium, model for a normal cell population) is reported as “nur eine geringe Toxizität”.
